According to patent US4975434A, “Antiviral and anticancer cyclopentenyl cytosine” (priority 1989, dated 1990):

Legend:
[1] = test system: Varicella-Zoster virus, isolate DM625; test: Varicella-Zoster Virus (VZV) Plaque Reduction Assay; type: cell-based; conditions: result in words
[2] = test system: Huf (human diploid foreskin cells); test: Toxicity to Huf host cells (gross cell morphology) in the VZV assay; conditions: 320 μg/ml
[3] = test system: Punta Toro virus, strain Adames; type: cell-based, Punta Toro virus; host Vero cells; conditions: minimum toxic drug concentration / ID50; Vero cells

Row | SMILES | antiviral activity [1] | Host cell toxicity (gross cell morphology) [2] | TI (therapeutic index) [3]
1 | Nc1nc2c(ncn2COC(CO)CO)c(=O)[nH]1 [DHPG, 9(1,3-Dihydroxy-2-propoxymethyl)guanine, reference compound] | superior | Slightly toxic | 
2 | NC(=O)c1ncn([C@@H]2O[C@H](CO)[C@@H](O)[C@H]2O)n1 [Ribavirin, reference compound] |  |  | 5.0
